# From PMC6121455, “Synthesis and Spectrum of Biological Activities of Novel N-arylcinnamamides” (International Journal of Molecular Sciences, 2018)
# Details: RP-HPLC, C18, isocratic MeOH 72%/H2O 28%
smiles,measurement,value
"O=C(/C=C/c1ccccc1)Nc1ccccc1F [Compound 4, (2E)-N-(2-Fluorophenyl)-3-phenylprop-2-enamide]",log k,0.1330
